Test system: maize haploids
Experiment: Colchicine doubling treatment of BC3 haploids, pollen and kernel phenotypes in the field
Assay type: in vivo
Conditions: colchicine-treated haploids
Text: To test whether the SCD-QTL1 could be used in combination with a chemical doubling treatment, such as colchicine, and have an additive effect on haploid male fertility, we took the 17 elite BC2 lines from Example 6 through one additional backcross generation to produce a BC3. Genotyping was used to identify heterozygotes at SCD-QTL1, and those materials were then crossed by a haploid inducer, embryos isolated from the immature ears, and haploids regenerated for transplant into the field. Immediately after isolation, embryos from each of the 17 BC3 populations were split into 2 treatment groups. […] Thus, there were 4 treatment groups to compare within each elite BC3 population: (1) SCD-QTL1 with colchicine (haploid male fertility plus colchicine), (2) unfavorable QTL allele with colchicine (positive control), (3) SCD-QTL1 without colchicine (haploid male fertility alone), (4) and unfavorable QTL allele without colchicine (negative control). All lines were planted across three replications of the trial over the course of approximately 6 months, and the data was pooled for analysis.
In this trial, sample sizes were large enough (minimum of 50 haploids per treatment group) to enable statistical analysis to confirm whether observed differences in kernel set between groups with and without the favorable allele of SCD-QTL1 were statistically significant using a Student's T-Test (Table 8). […] In double-haploid production, a key metric for success is the number of individual haploids that produce ears with greater than 5 kernels per ear with a colchicine treatment.

## COc1cc2c(c(OC)c1OC)-c1ccc(OC)c(=O)cc1[C@@H](NC(C)=O)CC2 [Colchicine, colchicine]
BC3 recurrent parent Line 8, Unfavorable Allele
  Percent of Plants with Ears >5 kernels: 32.0%
BC3 recurrent parent Line 9, SCD Allele
  Percent of Plants with Ears >5 kernels: 36.0%
BC3 recurrent parent Line 16, SCD Allele
  Percent of Plants with Ears >5 kernels: 34.1%

— patent US20250234824A1, “MARKERS ASSOCIATED WITH S[…]” (Syngenta Crop Protection AG, priority 2022, published 2025)
